Measured values published in PubChem BioAssay (Tox21).
The list shows a part of the results, in another mix than the full data. Inconclusive results are not listed. Activity calls are given as the source filed them. Unless noted, calls follow the shape of the dose curve; as a rule, active = well fitted curve in the direction sought with a large enough effect in the repeat runs; inconclusive = weak or mixed curves; inactive = no such curve, though single readings can be large; an effect the other way counts as inactive or inconclusive.

Assays:
[1] = A CellTox Green Cytotoxicity Assay to monitor cytotoxicity in HEK293 cells - 16 hour (AID 1224888); conditions: CellTox Green fluorescence, active compounds read high; also: nearly all actives have a fitted effect of over 35% in size
Outline: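 Cells (HEK293, 600/well) and dye reagent are dispensed together. After 5 h at 37 C, 23 nL compound is pinned in. Plates stay at 37 C for 40 h with fluorescence read at 0h, 8h, 16h, 24h, 32h and 40h.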

[2] = qHTS RealTime-Glo MT Cell Viability Assay in HepG2 cells - 0 hour (AID 1224889); conditions: RealTime-Glo luminescence; also: nearly all actives have a fitted effect of over 50% in size
Outline: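 Real-time, nonlytic viability: 600 HepG2 cells/well mixed with NanoLuc enzyme plus prosubstrate; 5 h settle, compound (DMSO) added by pintool; luminescence monitored over 40 h at 37 C.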

[3] = A CellTox Green Cytotoxicity Assay to monitor cytotoxicity in HepG2 cells - 8 hour (AID 1224890); conditions: CellTox Green fluorescence; also: nearly all actives have a fitted effect of over 45% in size
Outline: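 Cells and non-lytic dye reagent are dispensed together (600 HepG2 cells/well) and incubated 5 h before DMSO compound transfer. Kinetic fluorescence is then recorded in the same wells during 40 h at 37 C.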

[4] = qHTS assay to identify small molecule antagonists of the estrogen receptor alpha (ER-alpha) signaling pathway using the BG1 cell line in the presence of 0.1 nM 17-beta-estradiol - cell viability counter screen (AID 1259241); conditions: VM7Luc4E2 (BG1) viability, CellTiter-Fluor protease, 22 h, 0.1 nM estradiol agonist added; also: nearly all actives have a fitted effect of over 40% in size
From the text: (§1) National Center for Advancing Translational Sciences [NCATS]
(§2) NIH Chemical Genomics Center [NCGC]
(§3) U.S. Environmental Protection Agency [EPA]
(§4) National Institutes of Environmental Health Sciences [NIEHS]
(§5) National Toxicology Program [NTP]
(§6) U.S. Food and Drug Administration [FDA]
Estrogen receptor (ER), a member of the nuclear hormone receptor plays an important role in development, metabolic homeostasis and reproduction. Two subtypes of ER, ER-alpha and ER-beta, have similar expression patterns with some uniqueness in both types. Endocrine disrupting chemicals (EDCs) and their interactions with steroid hormone receptors like ER causes disruption of normal endocrine function. Therefore, it is important to understand the effect of environmental chemicals in ER signaling pathway. For identifying ER antagonists, VM7Luc4E2 cell line was used to screen against Tox21 compound libraries.
VM7Luc4E2 cell line (provided by Denison MS, University of California) endogenously express full-length ER-alpha and is stably transfected with a plasmid containing four estrogen responsive elements (ERE) upstream of a luciferase reporter gene. The current screening for identification of ER-alpha inhibitors against Tox21 compound libraries used lower concentration (0.1 nM) of 17beta-Estradiol as a stimulator. The cytotoxicity of the Tox21 compound libraries against VM7Luc4E2 cell line was tested by measuring live-cell protease activity using CellTiter-Fluor assay in the same wells.
Tox21 Assay Protocol Summary:
VM7Luc4E2 cells were cultured in phenol red free assay medium containing 10% charcoal stripped FBS for 5 days prior to the assay. The cells were dispensed at 4,000 cells/well in 4 uL of assay medium into white wall/solid-bottom 1536-well plates (Corning Life Sciences, Corning, NY) using a Multidrop Combi (ThermoFisher Scientific, Waltham, MA) dispenser. After the assay plates were incubated at 37C and 5% CO2 for 24 hr, 23 nL of compounds dissolved in DMSO, positive controls or DMSO only was transferred to the assay plates by a Pintool station (Kalypsys, San Diego, CA). The transfer of compounds was followed by the addition of 1 uL of 0.1 nM (final concentration) agonist (17beta-Estradiol)/assay medium using a Flying Reagent Dispenser (FRD, Aurora Discovery, San Diego, CA). The plates were incubated at 37C and 5% CO2 for 22 hr. For cytotoxicity assay, 1 uL of CellTiter-Fluor reagent (Promega Corporation, Madison, WI) was added to each well using the FRD and after 30 min incubation at 37C and 5% CO2, The fluorescence intensity was measured using ViewLux plate reader (PerkinElmer, Shelton, CT).

[5] = qHTS assay to identify small molecule HDAC inhibitors (AID 1259364); conditions: HCT-116 HDAC-Glo I/II luminescence, 2 h; also: top concentration of the series differs between compounds; nearly all actives have a fitted effect of over 45% in size
Outline: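 Cells (HCT-116, wild type) are seeded at 1,500 per well, incubated overnight, treated with compound in DMSO for 2 hr, then developed with HDAC-Glo I/II reagent for 30 min at room temperature.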

[6] = qHTS assay to identify small molecule HDAC inhibitors - cell viability counter screen (AID 1259365); conditions: HCT-116 viability, CellTiter-Glo ATP luminescence, 2 h; also: nearly all actives have a fitted effect of over 50% in size
From the text: U.S. Tox21 Program National Center for Advancing Translational Sciences [NCATS] NIH Chemical Genomics Center [NCGC] U.S. Environmental Protection Agency [EPA] National Institutes of Environmental Health Sciences [NIEHS] National Toxicology Program [NTP] U.S. Food and Drug Administration [FDA] Tox21 Assay Overview: Histone deacetylases (HDACs) are a group of epigenetic enzymes that regulate gene expression by histone deacetylation. HDACs are capable of introducing epigenetic modifications and such aberrations contribute to the onset and progression of several human diseases, thus making HDACs a popular therapeutic target. For identifying endogenous class I/II HDAC inhibitors a homogenous, luminogenic HDAC I/II cell based assay was used to measure the relative activity of class I and II HDACs from cells. Wild type HCT-116 cells were used to screen Tox21 compound libraries for identifying class I/II HDAC inhibitors.
Tox21 Assay Protocol Summary: HCT-116 cells were dispensed at 1,500 per well in 5uL of culture medium into white solid bottom 1536-well plates (Greiner Bio-One, Monroe, NC) using a Multidrop Combi (Thermo Scientific, Waltham, MA) dispenser. The assay plates were incubated at 37 C and 5% CO2 for an overnight, and then 23nL of compounds dissolved in DMSO and positive control were transferred using a Pintool station (Wako, San Diego, CA). The assay plates were incubated at 37C and 5% CO2 for 2hr. After compound treatment, 4uL of CellTiter-Glo reagent (Promega Corporation, Madison, WI) was added to each well of the assay plates using Flying Reagent Dispenser (FRD, Aurora Discovery, San Diego, CA) and incubated the assay plates at room temperature for 30min. The luminescence signal was quantified using a ViewLux plate reader (Perkin Elmer, Shelton, CT).

[7] = qHTS assay to identify small molecule antagonists of the sonic hedgehog signaling (Shh) pathway - cell viability counter screen (AID 1259367); conditions: NIH/3T3 Gli1-Luc viability, CellTiter-Fluor, 24 h; at 92.4 µM (top of the series); also: nearly all actives have a fitted effect of over 55% in size
Outline: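 Tox21 library chemicals were tested on a Gli1-Luc NIH/3T3 clone (2,000 cells/well) stimulated by conditioned medium; viability was quantified as fluorescence from CellTiter-Fluor reagent added at 23 hr.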

[8] = qHTS assay to identify small molecule agonists of the sonic hedgehog signaling (Shh) pathway (AID 1259368; calls by dose curve;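 also: NIH/3T3-derived 3T3Gli1-Luc cells carrying a stable Gli1-driven firefly luciferase reporter; nearly all actives have a fitted effect of over 15% in size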); conditions: NIH/3T3 Gli1-Luc reporter, luciferase, 24 h, active compounds read high
From the text: as §1, §2, §3, §4, §5
The sonic hedgehog (Shh) pathway is essential for normal embryonic development. Dysregulation of the Shh pathway can cause severe developmental defects in organs. Therefore chemicals that interfere with the pathway are potential developmental toxicants. A cell line designated 3T3Gli1-Luc (DMB/OARSA/CFSAN/FDA, Laurel, MD), a NIH/3T3 derived clone containing stably integrated Gli1-Luc reporter is used to detect chemical interference of the Shh pathway, by changes in the expression of the firefly Luc gene under the control of the Gli1 transcriptional response element. This cell line was used to screen Tox21 libraries for identifying and prioritizing the potential developmental toxicants that interfere Shh pathway.
3T3 Gli1-Luc cells were dispensed at 2,000 per well in 5uL of culture medium into white solid bottom 1536-well plates (Greiner Bio-One, Monroe, NC) using a Multidrop Combi (Thermo Scientific, Waltham, MA) dispenser. The assay plates were incubated at 37 C and 5% CO2 for 4hr, and then 23nL of compounds dissolved in DMSO and positive control were transferred using a Pintool station (Wako, San Diego, CA). The assay plates were incubated at 37C and 5% CO2 for 24hr. For luciferase read, 4uL of Amplite Luciferase reporter gene assay reagent (AAT Bioquest, Inc. Sunnyvale, CA) was added to each well of the assay plates using Flying Reagent Dispenser (FRD, Aurora Discovery, San Diego, CA) and incubated at room temperature for 30min. The luminescence signal was measured using a ViewLux plate reader (Perkin Elmer, Shelton, CT).

[9] = qHTS assay to identify small molecule antagonists of the androgen receptor (AR) signaling pathway using the MDA cell line in the presence of 0.5 nM R1881 - cell viability counter screen (AID 1259242); conditions: MDA-kb2 viability, CellTiter-Fluor protease fluorescence, 16 h; at 92.4 µM (top of the series); also: nearly all actives have a fitted effect of over 45% in size
Outline: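 Steps: plate MDA-kb2 cells, rest 5 hr at 37C without CO2; pin in compounds in DMSO; add R1881 to 0.5 nM final; incubate 16 hr; add CellTiter-Fluor, 30 min; read fluorescence.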

[10] = qHTS assay to identify small molecule agonists of the sonic hedgehog signaling (Shh) pathway - cell viability counter screen (AID 1259366); conditions: NIH/3T3 Gli1-Luc viability, CellTiter-Fluor, 24 h; at 92.4 µM (top of the series); also: nearly all actives have a fitted effect of over 50% in size
From the text: as §1, §2, §3, §4, §5, §6
The sonic hedgehog (Shh) pathway is essential for normal embryonic development. Dysregulation of the Shh pathway can cause severe developmental defects in organs. Therefore chemicals that interfere with the pathway are potential developmental toxicants. […]
3T3 Gli1-Luc cells were dispensed at 2,000 per well in 5uL of culture medium into white solid bottom 1536-well plates (Greiner Bio-One, Monroe, NC) using a Multidrop Combi (Thermo Scientific, Waltham, MA) dispenser. […] For viability read, after 23hr of compound treatment, 1uL of CellTiter-Fluor reagent (Promega Corporation, Madison, WI) was added to each well of the assay plates using Flying Reagent Dispenser (FRD, Aurora Discovery, San Diego, CA) and incubated the assay plates at 37C for 1hr. The fluorescence signal was quantified using a ViewLux plate reader (Perkin Elmer, Shelton, CT).
% is scaled to controls: 0 for no effect and ±100 for the full control effect.

CCC(=O)N(c1ccccc1)C1(COC)CCN(CCc2cccs2)CC1
inactive: activity change ([1]; at 76.8 µM (top of the series)) 4.52% | activity change, negative = cytotoxicity ([2]; at 76.8 µM (top of the series)) -1.02% | cytotoxicity increase ([3]; at 76.8 µM (top of the series)) 0.633% | activity change, negative = cytotoxicity ([4]; at 92.4 µM (top of the series)) -3.78% | activity change, negative = inhibition ([5]; at 92.4 µM (top of the series)) 10.4% | activity change, negative = cytotoxicity ([6]; at 92.4 µM (top of the series)) -5.19% | viability change, negative = cytotoxic [7] -11.1% | activity change ([8]; at 92.4 µM (top of the series)) -1.06%

CN(CCCl)CCCl
inactive: activity change ([1]; at 35.3 µM (top of the series)) 0.842% | activity change ([1]; at 76.8 µM (top of the series)) -5.17% | activity change, negative = cytotoxicity ([2]; at 35.3 µM (top of the series)) -1.83% | activity change, negative = cytotoxicity ([2]; at 76.8 µM (top of the series)) -2.81% | cytotoxicity increase ([3]; at 35.3 µM (top of the series)) -0.857% | cytotoxicity increase ([3]; at 76.8 µM (top of the series)) -8.77% | activity change, negative = cytotoxicity ([4]; at 42.5 µM (top of the series)) -1.72% | activity change, negative = cytotoxicity ([4]; at 92.4 µM (top of the series)) -33.9% | activity change, negative = inhibition ([5]; at 42.5 µM (top of the series)) 3.52% | activity change, negative = inhibition ([5]; at 92.4 µM (top of the series)) 2.05% | activity change, negative = cytotoxicity ([6]; at 42.5 µM (top of the series)) 14.1% | activity change, negative = cytotoxicity ([6]; at 92.4 µM (top of the series)) 11% | activity change ([8]; at 42.5 µM (top of the series)) 0.995% | activity change ([8]; at 92.4 µM (top of the series)) -20.3%

O=[N+]([O-])C(Cl)(Cl)Cl
inactive: activity change ([1]; at 76.8 µM (top of the series)) 19% | activity change, negative = cytotoxicity ([2]; at 76.8 µM (top of the series)) 3.53% | cytotoxicity increase ([3]; at 76.8 µM (top of the series)) -12.7% | activity change, negative = cytotoxicity ([4]; at 92.4 µM (top of the series)) 4.65% | viability change, negative = cytotoxic [9] 2.29% | activity change, negative = inhibition ([5]; at 92.4 µM (top of the series)) -3.8% | activity change, negative = cytotoxicity ([6]; at 92.4 µM (top of the series)) 7.81% | viability change, negative = cytotoxic [7] 2.74% | activity change ([8]; at 92.4 µM (top of the series)) 1.21%

CCC(=O)N(c1ccccc1)C1(COC)CCN(CCn2nnn(CC)c2=O)CC1
inactive: activity change ([1]; at 76.8 µM (top of the series)) -0.254% | activity change, negative = cytotoxicity ([2]; at 76.8 µM (top of the series)) -3.67% | cytotoxicity increase ([3]; at 76.8 µM (top of the series)) -4.79% | activity change, negative = cytotoxicity ([4]; at 92.4 µM (top of the series)) 9.98% | viability change, negative = cytotoxic [9] 0.757% | activity change, negative = inhibition ([5]; at 92.4 µM (top of the series)) -3.12% | activity change, negative = cytotoxicity ([6]; at 92.4 µM (top of the series)) -1.26% | viability change, negative = cytotoxic [10] -2.7% | viability change, negative = cytotoxic [7] -7.67% | activity change ([8]; at 92.4 µM (top of the series)) 0.0987%
